## Antibody variant affinities, Ab-14 light chain, assay 1

Source: Engelhart et al. 2022 (doi:10.1038/s41597-022-01779-4), MIT Lincoln Laboratory and A-Alpha Bio; data file from the FLAb repository.

Target: peptide PDVDLGDISGINAS, taken from heptad repeat 2 (HR2) of SARS-CoV-2 spike.

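The starting antibody came from a phage panning campaign against this peptide. The library (AAYL50) carries one to three amino acid substitutions per variant, with no insertions or deletions. The scFvs were displayed on barcoded MATa yeast, the peptide on MATalpha yeast. Mating (16 h, 30 °C) was followed by selection of diploids and sequencing of their barcodes. Each replicate has its own calibration line, from reference interactions of the BCL2 family. There are three technical replicates.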

Each scFv is VH, three GGGGS repeats, VL, as in the parent Ab-14, and differs from it in the CDRs of the light chain only.
VH: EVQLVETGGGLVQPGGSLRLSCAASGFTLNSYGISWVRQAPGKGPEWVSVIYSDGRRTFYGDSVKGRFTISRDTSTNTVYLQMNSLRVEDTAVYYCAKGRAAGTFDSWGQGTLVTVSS
VL: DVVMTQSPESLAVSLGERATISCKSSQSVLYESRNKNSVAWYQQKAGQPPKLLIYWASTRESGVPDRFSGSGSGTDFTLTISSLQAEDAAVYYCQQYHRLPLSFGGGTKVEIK

Variants are written as CDR1, CDR2 and CDR3 of the light chain (limits as in the source). Parent: KSSQSVLYESRNKNSVA, WASTRES, QQYHRLPLS.
Values are log10 of the apparent Kd in nM; lower means stronger binding.
"ND" means that the variant was in the library but no mating with the target was seen in that replicate; the authors take this as a sign of poor binding, and no number exists.
Empty control strains, which show no peptide, gave a signal in 18% of pairings with library AAYL50; the median was 4.19 and 95% of these signals were weaker than 2.99. No background was subtracted. For each scFv, signals with the empty controls are counted beside the result, with their mean in brackets.
In this assay the parent's reference entry averaged 0.65; its copy inside this library read 1.68.

CDR-L1	CDR-L2	CDR-L3	log10 Kd, replicates	signal with controls
KSSQSVLYESRNKNSVA	WASTHES	QQAHRLPLS	4.36 / ND / ND	3/9 (5.07)
KSSQSVLYESRIGNSVA	WASTRES	QQYHRLMLS	5.45 / ND / 5.36	2/9 (3.85)
KSSQSVLYESRNKNNNA	WASTRES	QQYHWLPLS	ND / ND / ND	2/9 (3.67)
WSSQSVLYESRNKNSVH	DASTRES	QQYHRLPLS	ND / ND / 6.19	4/9 (5.13)
KSSQSVLYESRNKNSVA	WASTRES	QQYHRTGTS	ND / 5.03 / 5.68	3/9 (3.58)
KSSQGVLYESRNKNSVH	WASTRES	QQYHRLPDS	ND / 3.55 / ND	1/9 (3.77)
KSSQSVLYESRNKPSVA	WASTREV	QQYHRLPLS	1.06 / 1.35 / 1.53	2/9 (4.59)
KSSQSVLYESENKNSVA	WASRRES	RQYHRLPLS	ND / ND / ND	3/9 (4.22)
KVSQSVLYESWNKNSVA	WASPRES	QQYHRLPLS	3.38 / 4.18 / 5.16	2/9 (4.51)
KSSQSVLNESRNKNSVA	WASTRES	QQIHRLPLS	1.60 / ND / ND	0/9
KSSQSVLYESRNKNSVA	WASTREW	QCIHRLPLS	0.99 / 1.11 / 1.11	0/9
KSSQSPLYESRNKNSVA	WAWTPES	QQYHRLPLS	4.92 / 3.25 / 6.04	4/9 (4.49)
ESSQSVLYESRNVISVA	WASTRES	QQYHRLPLS	ND / ND / ND	0/9
KSSQSVLYEARNKNSVA	WASTRES	QQYHQLPDS	0.84 / 1.07 / 0.99	4/9 (4.52)
KSSQSVLYESQNKRVVA	WASTRES	QQYHRLPLS	4.89 / 4.14 / ND	5/9 (4.29)
KSSCSVLYESRNKNSVA	WASTRES	IQYFRLPLS	4.43 / 2.92 / 3.87	3/9 (3.70)
ASSQSVLYESRNKNSVA	WASTRES	EQYHRLPTS	1.87 / 1.57 / 1.73	2/9 (3.31)
VSSQSWLYESRNKNSVA	WASTRES	QQYQRLPLS	2.46 / 1.99 / 1.95	0/9
KSSQDVLYESRNKNSVA	WASTRES	QQYHTLPLS	0.39 / 0.67 / 0.50	0/9
HSSQSVLYESENKNSVA	WASTREA	QQYHRLPLS	1.37 / 1.28 / 1.44	0/9
KSSQSVLYESRNWNSVA	EASTRES	QVYHRLPLS	1.37 / 1.45 / 1.75	0/9
KSSQSVLYESHNKNSVA	WASTRES	QQYADLPLS	1.40 / 1.64 / 1.46	1/9 (3.04)
KSPQSVLYESRNKNSVA	WNSTRPS	QQYHRLPLS	3.29 / ND / ND	0/9
KSSQSVLYESRNKNSVA	WASTRES	QQYHRLPGS	5.81 / ND / ND	0/9
KSSQSVLYESRNKHSVA	WASTRES	IQYHRKPLS	ND / ND / ND	1/9 (3.14)
KPSQSVLYESRNMNSVA	WQSTRES	QQYHRLPLS	ND / ND / ND	1/9 (4.59)
KSMQSVLQESRNKNEVA	WASTRES	QQYHRLPLS	2.37 / 1.62 / 2.64	1/9 (3.47)
KSSQSVLYESRNKNTVA	WASTRET	QQYHRLCLS	ND / ND / ND	1/9 (2.20)
KSSQSVLYESRNVCSVA	SASTRES	QQYHRLPLS	0.58 / 1.16 / 0.67	0/9
KCSQSVLYESRNKVSMA	WASTRES	QQYHRLPLS	ND / ND / ND	0/9
KSMSSVLYESRNKNSVA	WASTRES	QQYHRLPYS	1.44 / 1.17 / 1.87	0/9
KFSQSVLYESRNKNSVA	WASTRES	QQYHGLPLG	1.88 / 1.97 / 2.03	1/9 (5.65)
ISSQSVLYENRNKNDVA	WASTRES	QQYHRLPLS	3.60 / 3.28 / 4.49	5/9 (4.17)
KSSQSVLYQSRNKNSVA	QASTRES	QQYHRLPQS	1.87 / 1.26 / 1.20	1/9 (3.21)
KSSQSVLYESRNKNSVA	WASTRES	QQYHCLPLF	ND / ND / ND	0/9
KPSQIVLYESRNKNSVA	WATTRES	QQYHRLPLS	1.43 / 1.15 / 1.71	0/9
KSSQSVLYESRNKNSVA	WAATREE	QQYHRLPLM	1.00 / 1.14 / 1.16	2/9 (5.01)
NSSQSVLYESRNKNSRA	WASTRES	QQYHRLPLS	5.88 / 4.75 / 5.36	6/9 (4.23)
KSSSSVLYESRNKNSVA	WASTRES	PQYHRLPRS	ND / ND / ND	0/9
KSGQSVLYESRNKNSVA	WASTREY	QQHHRLPLS	2.10 / 1.80 / 1.86	2/9 (4.88)
KSSQSVLYESRPKNSHA	EASTRES	QQYHRLPLS	3.67 / 3.74 / 3.69	3/9 (4.00)
KSSQSVLYESQNKNSKA	WASTREH	QQYHRLPLS	2.03 / 2.26 / 2.21	7/9 (5.07)
KSSQKVLYESRNQNSVA	WASQRES	QQYHRLPLS	0.88 / 1.16 / 0.89	0/9
KSSQSPLYEYRRKNSVA	WASTRES	QQYHRLPLS	1.57 / 1.40 / 1.57	2/9 (4.02)
TSSQSVLYESRNKNVVA	WASFRES	QQYHRLPLS	ND / ND / ND	1/9 (3.13)
KMSQSVLYESRNKNSVA	WAITRES	QSYHRLPLS	ND / ND / ND	0/9
LSSQSVLCESRNKNSVA	WASTRES	AQYHRLPLS	ND / ND / ND	2/9 (2.43)
KSSPSVLYESRNKNSVA	WKSTRES	QQYHRCPLS	1.97 / 1.65 / 1.67	4/9 (4.20)
KSSQSVLYEERNTNSVA	WASTRES	QQYHRLPLS	0.23 / 0.54 / 0.43	2/9 (4.31)
KSSQSVLYDSRNKNSVA	WASTRES	QQYPALPLS	ND / 4.16 / ND	3/9 (4.40)
KSSQSVLYESRNKNSNA	WASTDES	QQYHSLPLS	6.17 / 4.79 / ND	3/9 (4.29)
KSSQGVLYEQRNKNSVA	WASTRES	QQYHRLPLN	3.75 / 4.86 / 3.91	3/9 (3.90)

The opening 4 entries, copied out:

CDR-L1	CDR-L2	CDR-L3	log10 Kd, replicates	signal with controls
KSSQSVLYESRNKNSVA	WASTHES	QQAHRLPLS	4.36 / ND / ND	3/9 (5.07)
KSSQSVLYESRIGNSVA	WASTRES	QQYHRLMLS	5.45 / ND / 5.36	2/9 (3.85)
KSSQSVLYESRNKNNNA	WASTRES	QQYHWLPLS	ND / ND / ND	2/9 (3.67)
WSSQSVLYESRNKNSVH	DASTRES	QQYHRLPLS	ND / ND / 6.19	4/9 (5.13)